From patent US20230322767A1, “ARYL SUBSTITUTED PYRROLO-PYRIDINONES AND THERAPEUTIC USES THEREOF” (Bayer Aktiengesellschaft, priority 2020, published 2023)

Amino acid sequences for entries named in this document (tags omitted). A change or cut given only in a name is not applied to a line headed by its entry.
UniProt P48729: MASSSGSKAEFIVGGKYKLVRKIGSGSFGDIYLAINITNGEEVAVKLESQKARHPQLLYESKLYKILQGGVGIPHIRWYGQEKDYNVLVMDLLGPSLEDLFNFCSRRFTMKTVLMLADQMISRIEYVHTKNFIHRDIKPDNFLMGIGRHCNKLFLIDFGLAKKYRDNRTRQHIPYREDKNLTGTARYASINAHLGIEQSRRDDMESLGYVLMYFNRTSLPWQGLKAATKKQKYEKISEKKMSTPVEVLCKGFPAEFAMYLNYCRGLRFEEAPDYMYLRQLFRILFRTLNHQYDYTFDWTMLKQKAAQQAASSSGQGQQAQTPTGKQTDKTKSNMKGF

Molecular target: CSNK1A1 (Homo sapiens (Human), UniProt P48729)
Experiment: CSNK1A1 Assay 2 (ADP-Glo, 1 μM ATP)
Assay type: biochemical
Conditions: median, read-out: CSNK1A1 Assay 2 IC50 [mol/l] (median)
Description: CSNK1A1-inhibitory activity of compounds of the present invention in presence of 1 μM adenosine-tri-phosphate (ATP) was quantified employing the CSNK1A1 assay as described in the following paragraphs. In essence, the enzyme activity is measured by quantification of the adenosine-di-phosphate (ADP), which is generated as a co-product of the enzyme reaction, via the “ADP-Glo™ Kinase Assay” kit from the company Promega. This detection system works as follows: In a first step the ATP not consumed in the kinase reaction is quantitatively converted to cAMP employing an adenylate cyclase (“ADP-Glo-reagent”), then the adenylate cyclase is stopped and the ADP generated in the kinase reaction converted to ATP which generates in a luciferase-based reaction a glow-luminescence signal (“Kinase Detection Reagent”).
Recombinant fusion protein of N-terminal Glutathion-S-Transferase (GST) and full-length human CSNK1A1, expressed by baculovirus infected insect cells and purified via Glutathion affinity chromatography, was purchased from Life Technologies (product no. PV4174) and used as enzyme. […]
For the assay 50 nl of a 100 fold concentrated solution of the test compound in DMSO was pipetted into a white 1536-well microtiter plate (Greiner Bio-One, Frickenhausen, Germany), 2 μL of a solution of CSNK1A1 in aqueous assay buffer [50 mM HEPES pH 7.5, 10% (v/v) glycerol, 10 mM MgCl2, 50 mM NaCl, 1 mM dithiothreitol, 0.01% (w/v) bovine serum albumin, 0.01% (v/v) Triton X-100] were added and the mixture was incubated for 15 min at 22° C. to allow pre-binding of the test compounds to the enzyme before the start of the kinase reaction. […] Subsequently 2.5 μL of the “kinase detection reagent” (1.2 fold more concentrated than recommended by the producer) were added, the resulting mixture was incubated at 22° C. for 1 h and then the luminescence measured with a suitable measurement instrument (e.g. Viewlux™ from Perkin-Elmer). […]

| Compound | IC50 [nM] |
| --- | --- |
| Cn1ccc2[nH]c(-c3ccnc(NC(=O)C(CC(F)F)c4ccc(F)cc4)c3)c(-c3ccccc3)c2c1=O (single isomer, unassigned) [Example 8, 4,4-difluoro-2-(4-fluorophenyl)-N-[4-(5-methyl-4-oxo-3-phenyl-4,5-dihydro-1H-pyrrolo[3,2-c]pyridin-2-yl)pyridin-2-yl]butanamide] | 0.94 |
| Cn1ccc2[nH]c(-c3ccnc(NC(=O)C(CC(F)F)c4ccc(F)cc4)c3)c(-c3ccccc3)c2c1=O (single isomer, unassigned) [Example 7, 4,4-difluoro-2-(4-fluorophenyl)-N-[4-(5-methyl-4-oxo-3-phenyl-4,5-dihydro-1H-pyrrolo[3,2-c]pyridin-2-yl)pyridin-2-yl]butanamide] | 7.3 |
| Cn1ccc2[nH]c(-c3ccnc(NC(=O)C(CC(F)F)c4ccc(F)cc4)c3)c(-c3ccccc3)c2c1=O (racemic) [Example 6, 4,4-difluoro-2-(4-fluorophenyl)-N-[4-(5-methyl-4-oxo-3-phenyl-4,5-dihydro-1H-pyrrolo[3,2-c]pyridin-2-yl)pyridin-2-yl]butanamide] | 2.5 |
